Experimental data reported in US10087225B2, “Formulation of MK2 inhibitor peptides” (MOERAE MATRIX, INC., priority 2015, dated 2018).

Chains of the proteins cited; added tags and fusions are not shown. Lines headed by an entry give the natural chain unless they say otherwise; changes in a name come on top. Residues count along the entry.
UniProt Q9HCP0: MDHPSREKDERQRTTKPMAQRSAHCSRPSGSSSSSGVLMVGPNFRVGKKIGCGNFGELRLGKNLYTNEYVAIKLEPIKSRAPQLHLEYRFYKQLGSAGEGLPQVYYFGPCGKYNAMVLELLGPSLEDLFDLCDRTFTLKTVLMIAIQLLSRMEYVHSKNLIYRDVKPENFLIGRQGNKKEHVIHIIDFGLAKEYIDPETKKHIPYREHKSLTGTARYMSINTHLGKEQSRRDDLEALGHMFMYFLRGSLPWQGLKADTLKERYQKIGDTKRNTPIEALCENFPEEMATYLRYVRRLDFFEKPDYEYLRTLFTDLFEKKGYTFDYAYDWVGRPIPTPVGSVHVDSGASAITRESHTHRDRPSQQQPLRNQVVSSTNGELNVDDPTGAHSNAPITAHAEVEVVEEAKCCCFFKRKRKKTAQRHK
UniProt P78368: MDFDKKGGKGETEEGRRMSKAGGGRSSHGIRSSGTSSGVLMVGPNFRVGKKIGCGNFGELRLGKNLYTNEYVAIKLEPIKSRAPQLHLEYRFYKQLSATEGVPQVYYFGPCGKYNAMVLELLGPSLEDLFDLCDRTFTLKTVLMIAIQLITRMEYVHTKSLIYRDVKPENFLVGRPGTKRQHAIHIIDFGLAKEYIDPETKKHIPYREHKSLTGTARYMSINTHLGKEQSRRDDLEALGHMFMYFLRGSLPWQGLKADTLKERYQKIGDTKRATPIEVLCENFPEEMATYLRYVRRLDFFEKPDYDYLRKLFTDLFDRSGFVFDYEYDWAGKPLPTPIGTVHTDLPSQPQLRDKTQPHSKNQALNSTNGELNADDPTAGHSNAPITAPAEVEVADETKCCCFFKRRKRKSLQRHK
UniProt Q9Y6M4: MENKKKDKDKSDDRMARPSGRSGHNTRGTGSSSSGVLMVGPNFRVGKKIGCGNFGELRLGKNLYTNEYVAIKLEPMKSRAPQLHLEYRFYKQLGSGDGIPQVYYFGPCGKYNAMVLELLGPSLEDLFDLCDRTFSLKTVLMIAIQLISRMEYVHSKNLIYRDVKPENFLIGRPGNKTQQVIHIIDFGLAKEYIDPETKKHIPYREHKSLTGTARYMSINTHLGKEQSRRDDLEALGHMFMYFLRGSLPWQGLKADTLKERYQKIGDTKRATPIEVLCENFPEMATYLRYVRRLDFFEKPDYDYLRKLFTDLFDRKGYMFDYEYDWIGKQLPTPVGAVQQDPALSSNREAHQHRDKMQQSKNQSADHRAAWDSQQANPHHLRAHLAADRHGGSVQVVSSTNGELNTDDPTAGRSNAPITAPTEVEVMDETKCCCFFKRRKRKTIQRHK
UniProt P11362, 22-822 V561M: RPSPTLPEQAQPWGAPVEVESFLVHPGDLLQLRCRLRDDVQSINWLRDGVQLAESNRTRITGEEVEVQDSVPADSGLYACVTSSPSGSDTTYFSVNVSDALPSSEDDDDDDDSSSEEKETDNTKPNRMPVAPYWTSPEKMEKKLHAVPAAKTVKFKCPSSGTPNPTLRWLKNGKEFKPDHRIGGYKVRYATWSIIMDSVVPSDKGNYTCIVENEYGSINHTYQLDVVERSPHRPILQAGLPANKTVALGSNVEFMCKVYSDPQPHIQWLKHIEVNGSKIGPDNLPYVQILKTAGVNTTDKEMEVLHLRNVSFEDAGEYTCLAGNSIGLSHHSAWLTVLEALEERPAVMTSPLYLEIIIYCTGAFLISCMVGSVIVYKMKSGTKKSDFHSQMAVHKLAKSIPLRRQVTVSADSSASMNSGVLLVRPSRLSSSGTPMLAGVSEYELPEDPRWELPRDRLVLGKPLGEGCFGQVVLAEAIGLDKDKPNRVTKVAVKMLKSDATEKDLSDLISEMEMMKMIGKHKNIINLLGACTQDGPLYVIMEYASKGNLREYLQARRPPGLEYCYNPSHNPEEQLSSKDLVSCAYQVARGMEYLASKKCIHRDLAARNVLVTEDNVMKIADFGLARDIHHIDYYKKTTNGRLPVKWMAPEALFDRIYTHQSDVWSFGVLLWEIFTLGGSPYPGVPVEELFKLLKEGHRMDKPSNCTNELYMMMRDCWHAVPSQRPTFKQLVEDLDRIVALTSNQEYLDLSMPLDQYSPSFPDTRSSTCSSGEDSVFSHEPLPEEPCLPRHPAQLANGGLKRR
UniProt P45983, 1-384 isoform P45983-2: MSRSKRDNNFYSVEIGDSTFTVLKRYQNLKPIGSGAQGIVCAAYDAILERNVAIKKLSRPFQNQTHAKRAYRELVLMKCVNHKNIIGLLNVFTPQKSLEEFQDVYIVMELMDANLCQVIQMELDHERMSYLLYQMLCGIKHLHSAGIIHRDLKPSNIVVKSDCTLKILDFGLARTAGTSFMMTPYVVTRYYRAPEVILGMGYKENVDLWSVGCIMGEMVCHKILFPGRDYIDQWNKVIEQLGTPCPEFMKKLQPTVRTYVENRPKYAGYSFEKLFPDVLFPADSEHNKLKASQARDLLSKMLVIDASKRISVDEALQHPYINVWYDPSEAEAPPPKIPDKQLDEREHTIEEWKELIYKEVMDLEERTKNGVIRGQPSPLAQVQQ
UniProt Q9NQU5: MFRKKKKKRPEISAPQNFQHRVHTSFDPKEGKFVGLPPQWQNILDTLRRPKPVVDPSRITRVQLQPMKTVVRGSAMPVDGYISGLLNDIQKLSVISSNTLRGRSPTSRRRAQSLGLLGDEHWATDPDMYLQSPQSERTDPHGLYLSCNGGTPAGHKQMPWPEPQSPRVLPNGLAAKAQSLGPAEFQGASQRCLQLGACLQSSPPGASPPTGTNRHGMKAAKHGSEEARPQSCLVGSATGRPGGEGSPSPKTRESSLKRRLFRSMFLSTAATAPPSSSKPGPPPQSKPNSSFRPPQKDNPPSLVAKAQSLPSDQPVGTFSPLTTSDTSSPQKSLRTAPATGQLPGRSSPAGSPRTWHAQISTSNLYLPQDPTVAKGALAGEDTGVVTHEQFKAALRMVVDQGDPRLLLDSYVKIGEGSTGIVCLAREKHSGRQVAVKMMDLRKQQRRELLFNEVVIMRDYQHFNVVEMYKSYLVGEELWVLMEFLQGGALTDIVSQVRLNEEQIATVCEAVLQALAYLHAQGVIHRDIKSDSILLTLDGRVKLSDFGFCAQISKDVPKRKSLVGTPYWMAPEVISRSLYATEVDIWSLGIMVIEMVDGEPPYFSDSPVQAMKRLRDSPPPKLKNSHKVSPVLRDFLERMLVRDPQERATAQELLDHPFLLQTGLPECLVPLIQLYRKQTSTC

What was measured:
Test in all cases: Kinase Profiling Assay
Type in all cases: biochemical
Settings in all cases: 100 μM
CK1γ1(h) = CK1γ1(h) (Homo sapiens, UniProt Q9HCP0)
CK1γ2(h) = CK1γ2(h) (Homo sapiens, UniProt P78368)
CK1γ3(h) = CK1γ3(h) (Homo sapiens, UniProt Q9Y6M4)
CK2α2(h) = CK2α2(h) (Homo sapiens, UniProt P19784)
FGFR1(V561M)(h) = FGFR1(V561M)(h) (Homo sapiens, UniProt P11362, V561M)
FGFR2(N549H)(h) = FGFR2(N549H)(h) (Homo sapiens, UniProt P21802, N549H)
Fgr(h) = Fgr(h) (Homo sapiens, UniProt P09769)
GRK5(h) = GRK5(h) (Homo sapiens, UniProt P34947)
IGF-1R(h) = IGF-1R(h) (Homo sapiens, UniProt P08069)
JNK1α1(h) = JNK1α1(h) (Homo sapiens, UniProt P45983)
MKK7β(h) = target: T1, MKK7β(h) (Homo sapiens, UniProt O14733)
T1 sequence (O14733 1-419): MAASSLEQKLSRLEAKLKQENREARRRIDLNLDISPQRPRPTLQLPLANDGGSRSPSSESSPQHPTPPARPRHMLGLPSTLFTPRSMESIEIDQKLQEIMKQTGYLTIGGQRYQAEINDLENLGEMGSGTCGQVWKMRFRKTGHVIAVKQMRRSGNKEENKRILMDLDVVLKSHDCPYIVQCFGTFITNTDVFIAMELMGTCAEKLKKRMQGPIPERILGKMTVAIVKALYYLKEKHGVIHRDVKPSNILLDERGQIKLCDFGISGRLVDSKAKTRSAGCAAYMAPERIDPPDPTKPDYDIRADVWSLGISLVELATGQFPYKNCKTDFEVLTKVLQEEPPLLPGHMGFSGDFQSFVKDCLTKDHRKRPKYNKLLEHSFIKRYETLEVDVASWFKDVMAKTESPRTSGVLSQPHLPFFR

PAK6(h) = PAK6(h) (Homo sapiens, UniProt Q9NQU5)
Plk1(h) = Plk1(h) (Homo sapiens, UniProt P53350)

HRRIKAWLKKIKALARQLGVAA (Mammalian) [MMI-0500]
% activity (CK1γ1(h)): 109% | % activity (CK1γ2(h)): 119% | % activity (CK1γ3(h)): 114% | % activity (CK2α2(h)): 103% | % activity (FGFR1(V561M)(h)): 113% | % activity (FGFR2(N549H)(h)): 105% | % activity (Fgr(h)): 109% | % activity (GRK5(h)): 116% | % activity (IGF-1R(h)): 117% | % activity (JNK1α1(h)): 109% | % activity (MKK7β(h)): 102% | % activity (PAK6(h)): 107% | % activity (Plk1(h)): 104%
